Laboratory results from ChEMBL document CHEMBL1138589, “Development of novel aminoglycoside (NB54) with reduced toxicity and enhanced suppression of disease-causing premature stop mutations” (J Med Chem, 2009).

Test system: Ribosomal RNA A-site
Test: Binding affinity to human cytoplasmic ribosomal RNA A-site
Type: nucleic-acid assay
Outline: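 UV melting of RNA A-site model oligonucleotide, 2 µM in strand, drug 0 to 10 µM, in 10 mM EPPS (pH 7.0), 10 mM NaCl. RNA preheated 85 °C 5 min and slowly cooled. Absorbance read at 274 nm, 1 cm path, 0.5 °C steps with 1.5 min equilibration per step; ΔTm derived.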

For `NC[C@@H]1O[C@H](O[C@H]2[C@@H](O)[C@H](O[C@@H]3[C@@H](O)[C@H](N)C[C@H](N)[C@H]3O[C@H]3O[C@H](CO)[C@@H](O)[C@H](O)[C@H]3N)O[C@@H]2CO)[C@H](N)[C@@H](O)[C@@H]1O` [PAROMOMYCIN], the Ka was 3.9 ×10⁻⁵ /M.
